# BindingDB's records for doi:10.7270/Q2JQ0ZDS (Sanford-Burnham Center for Chemical Genomics, 2009)
# By UniProt entry, the sequences of proteins in these tests, tags left out. Where a name states a change or a piece, a line headed by the entry shows the natural chain unless it says otherwise.
# UniProt P09923: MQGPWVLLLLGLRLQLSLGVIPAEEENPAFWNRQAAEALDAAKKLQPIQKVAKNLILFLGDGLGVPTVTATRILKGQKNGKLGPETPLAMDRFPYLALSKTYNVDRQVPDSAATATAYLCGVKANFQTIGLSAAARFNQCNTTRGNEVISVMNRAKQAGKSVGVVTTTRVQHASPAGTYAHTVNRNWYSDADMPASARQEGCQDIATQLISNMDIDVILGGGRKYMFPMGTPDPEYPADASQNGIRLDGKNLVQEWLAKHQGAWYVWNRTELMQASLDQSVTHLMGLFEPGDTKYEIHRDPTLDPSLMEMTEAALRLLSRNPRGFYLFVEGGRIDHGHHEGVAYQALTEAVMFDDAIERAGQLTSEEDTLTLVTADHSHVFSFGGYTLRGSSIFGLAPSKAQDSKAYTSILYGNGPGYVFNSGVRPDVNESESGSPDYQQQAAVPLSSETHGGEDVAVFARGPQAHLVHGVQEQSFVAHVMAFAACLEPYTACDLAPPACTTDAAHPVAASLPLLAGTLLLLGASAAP
# Molecular target: Intestinal-type alkaline phosphatase (Homo sapiens, UniProt P09923)
# Test: human IAP enzyme inhibitors, dose response, biochemical, luminescence (AID 1017)
compound,measurement,value
"O=C1c2ccccc2C(=O)N1c1nc(Cc2ccccc2)n[nH]1 [2-(5-benzyl-1H-1,2,4-triazol-3-yl)isoindole-1,3-dione]",IC50,8.86 µM
